Several values for one entry are separate records, joined by “and”; a condition that tells them apart may be missing. Equal entries are not always repeated.
Tests used:
[1] = tested on: Zein; experiment: Zein solubility test method (irritation potential)
[2] = Effect on solubility of 12 HSA (visual observation); assay type: physicochemical

Row | Substance | Zein solubilty ([1]; 2% total surfactant in water, control, 1 g, co-surfactant 0 mg) | Zein solubilty ([1]; 2% total surfactant and compound in water, SLG 20% 0.7 g + co-surfactant 60 mg) | Irritation compared with control compounds (SLG, or coco glycinate) ([1]; Zein solubility test) | Observation ([2]; 41.18% Tween 60, 29.41% 12-HSA, 29.41% compound) | Observation ([2]; 41.67% Tween 60, 41.67% 12-HSA, 16.67% compound)
1 | coco glycinate [reference compound] | 77.2% and 80.6% | – | – | – | –
2 | conjugated linoleyl glycinate acid [Compound 1] | – | 25% and 23% | less irritating | translucent/clear | translucent

Reference: patent US11202743B2, “Personal care compositions comprising fatty acid amide derivatives” (Conopco, Inc., priority 2016, dated 2021)
